## Experimental vapor pressure values from OPERA 2.9

Values as listed in the OPERA 2.9 repository of K. Mansouri.

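The OPERA project collected these measurements from public sources as training and test data for property models. One number stands for a compound and property, with no spread given. Conditions of the individual experiments are not part of the data. The measured form (salt, isomer or mixture) is not always the one drawn. Some entries may be limits or estimates that an upstream database listed as plain numbers.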

Vapor pressures (log10 mmHg) refer to near room temperature, 15 to 30 °C; higher is more volatile. "via" names the databases from which the curators took the value.

Listed for O=C(O)CCCCC(S)CCS (stereo unspecified): vapor pressure -7.129 (log10 mmHg) (via eChemPortal). C=COC(=O)CC is reported with vapor pressure 1.552 (log10 mmHg) (via eChemPortal). CCCC[n+]1ccccc1.[Al+3].[Al+3].[Cl-].[Cl-].[Cl-].[Cl-].[Cl-].[Cl-].[Cl-] is reported with vapor pressure -4.663 (log10 mmHg) (via eChemPortal). CC(C)CCCCCCCCCCCCCCC(=O)OC(C)C(=O)OC(C)C(=O)[O-].[Na+] (stereo unspecified) has vapor pressure -4.415 (log10 mmHg) (via eChemPortal). O=C(OCC1CO1)c1ccc(C(=O)OCC2CO2)c(C(=O)OCC2CO2)c1 (stereo unspecified) has vapor pressure -8.201 (log10 mmHg) (via eChemPortal). The entry for N=C(N)S(=O)O lists vapor pressure -6.013 (log10 mmHg) (via eChemPortal). NCCCCCCCCCCCCN has vapor pressure -3.659 (log10 mmHg) (via eChemPortal). NCCOCCOCCN is reported with vapor pressure -0.274 (log10 mmHg) (via eChemPortal).

The entry for Cc1cc(C)[nH]n1 lists vapor pressure -2.418 (log10 mmHg) (via eChemPortal). CCCC(C)C(=O)O (stereo unspecified) has vapor pressure 0.176 (log10 mmHg) (via eChemPortal). The entry for COC(F)(F)C(F)(F)C(F)F lists vapor pressure 2.137 (log10 mmHg) (via ICF). c1ccc2scnc2c1 has vapor pressure -1.854 (log10 mmHg) (via OCHEM, OFMPub). CCCCC(O)CO (stereo unspecified) has vapor pressure -2.364 (log10 mmHg) (via eChemPortal). The entry for Clc1cc(Cl)cc(-c2c(Cl)c(Cl)cc(Cl)c2Cl)c1 lists vapor pressure -5.015 (log10 mmHg) (via OCHEM). Clc1cc(Cl)c2cc(Cl)cc(Cl)c2c1 is reported with vapor pressure -3.504 (log10 mmHg) (via OCHEM). The entry for O=C1OC(=O)c2cc(S(=O)(=O)c3ccc4c(c3)C(=O)OC4=O)ccc21 lists vapor pressure -12.52 (log10 mmHg) (via eChemPortal).

The entry for O=C(O)c1ccccc1C(=O)c1ccc(Cl)cc1 lists vapor pressure -7.777 (log10 mmHg) (via eChemPortal). For Clc1ccc(-c2cc(Cl)cc(Cl)c2)cc1 the data give vapor pressure -4.025 (log10 mmHg) (via OCHEM). For O=C([O-])C(O)C(O)C(=O)[O-].[K+].[Na+] (stereo unspecified) the data give vapor pressure -7.307 (log10 mmHg) (via eChemPortal). The entry for OCCSCC(O)CSCCO lists vapor pressure -4.852 (log10 mmHg) (via eChemPortal). Listed for CN1CCN(C)CCN(C)CC1: vapor pressure -0.035 (log10 mmHg) (via eChemPortal). COc1cccc(Cl)c1Cl has vapor pressure -3.455 (log10 mmHg) (via OCHEM). CCCCOCCO[Si](OCCOCCCC)(OCCOCCCC)OCCOCCCC has vapor pressure -2.87 (log10 mmHg) (via eChemPortal). Listed for CC(C)CCCCCCCCCCCCCCC(=O)OCC(O)COCC(O)CO (stereo unspecified): vapor pressure -9.648 (log10 mmHg) (via eChemPortal).

For CCCCC(CC)COC(=O)CC#N (stereo unspecified) the data give vapor pressure -2.491 (log10 mmHg) (via eChemPortal). CC(=O)c1cccc([N+](=O)[O-])c1 is reported with vapor pressure -4.415 (log10 mmHg) (via PubChem, eChemPortal). For O=C([O-])CN(CCO)CCN(CC(=O)[O-])CC(=O)[O-].[Na+].[Na+].[Na+] the data give vapor pressure -9.824 (log10 mmHg) (via eChemPortal). O=c1nc[nH]c2nc[nH]c12.[Na] is reported with vapor pressure -9.634 (log10 mmHg) (via eChemPortal). Listed for COC(=O)C=C(C)C: vapor pressure 1.176 (log10 mmHg) (via eChemPortal). Listed for Clc1cc(Cl)cc(-c2cc(Cl)c(Cl)cc2Cl)c1: vapor pressure -4.975 (log10 mmHg) (via OCHEM). CCCCCCCCCCCCCC[N+](C)(C)Cc1ccccc1.[Cl-] is reported with vapor pressure -5.87 (log10 mmHg) (via eChemPortal). O=C(n1ccnc1)n1ccnc1 has vapor pressure -4.186 (log10 mmHg) (via eChemPortal).

c1cc(CN(CC2CO2)CC2CO2)cc(CN(CC2CO2)CC2CO2)c1 (stereo unspecified) is reported with vapor pressure -1.084 (log10 mmHg) (via eChemPortal). For CCOCCCNC(=O)C(O)C(C)(C)CO (stereo unspecified) the data give vapor pressure -2.481 (log10 mmHg) (via eChemPortal).

The last 3 entries again:

O=C(n1ccnc1)n1ccnc1 is reported with vapor pressure -4.186 (log10 mmHg) (via eChemPortal).
c1cc(CN(CC2CO2)CC2CO2)cc(CN(CC2CO2)CC2CO2)c1 (stereo unspecified) is reported with vapor pressure -1.084 (log10 mmHg) (via eChemPortal).
CCOCCCNC(=O)C(O)C(C)(C)CO (stereo unspecified) is reported with vapor pressure -2.481 (log10 mmHg) (via eChemPortal).